Earlier results, collected in paper PMC7235792, “Effect of the Most Relevant CYP3A4 and CYP3A5 Polymorphisms on the Pharmacokinetic Parameters of 10 CYP3A Substrates” (Biomedicines, 2020).
Some compounds may have been tested in ways that are not shown here.

Settings: previous study of the group; cited from earlier work

Compound: CCC(=O)N(c1ccccc1)C1CCN(CCc2ccccc2)CC1
- AUC in CYP3A4*22 carriers: higher AUC
